Assays:
CBP BRD protein = CBP BRD protein (Homo sapiens, UniProt Q92793); test: CBP inhibitory activity, TR-FRET assay of CBP bromodomain with Ac-H4 peptide; details: read-out: CBP BRD IC50, CBP BRD protein 7.5 nM, Ac-H4 peptide 85 nM, 2 hours at room temperature
BRD4 (BD1) protein = BRD4 (BD1) protein (Homo sapiens, UniProt O60885); test: BRD4 inhibitory activity, TR-FRET assay of BRD4 bromodomain with Ac-H4 peptide; details: read-out: BRD4 (BD1) IC50, BRD4 (BD1) protein 7.5 nM, Ac-H4 peptide 15 nM, 2 hours at room temperature

Amino acid sequences for entries named in this document (tags omitted). Residues count along the entry.
UniProt Q92793, 1085-1192 limits assumed: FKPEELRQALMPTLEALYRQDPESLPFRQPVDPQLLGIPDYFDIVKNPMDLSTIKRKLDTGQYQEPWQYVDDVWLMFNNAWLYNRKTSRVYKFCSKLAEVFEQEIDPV

SMILES	IC50 (CBP BRD protein) [µM]	IC50 (BRD4 (BD1) protein) [µM]
CNC(=O)c1ccc(-c2ccc3c(c2)nc(-c2cccc(NCCN(C)C)c2C)n3-c2ccc3c(c2)n(C)c(=O)n3C)cc1F	0.5 to 5	> 5
Cn1cncc1-c1nc2cc(-c3nc(=O)o[nH]3)ccc2n1-c1ccc2c(c1)n(C)c(=O)n2C	< 0.5	> 5
CNC(=O)c1ccc(-c2ccc3c(c2)nc(-c2cccc(Br)c2C)n3-c2ccc3c(c2)n(C)c(=O)n3C)cc1F	< 0.5	> 5
Cn1cncc1-c1nc2cc(-c3ccnn3C)ccc2n1-c1ccc2c(c1)n(C)c(=O)n2C	0.5 to 5	> 5
CNC(=O)c1ccc(-c2ccc3c(c2)nc(-c2ccco2)n3-c2ccc3c(c2)n(C)c(=O)n3C)cc1F	> 5	> 5
CNC(=O)c1ccc(-c2ccc3c(c2)nc(-c2cncn2C)n3-c2ccc3c(c2)n(C)c(=O)n3C)cc1Cl	< 0.5	0.5 to 5
Cn1cncc1-c1nc2cc(-c3cccc(O)c3)ccc2n1-c1ccc2c(c1)n(C)c(=O)n2C	< 0.5	> 5
CC(=O)Nc1cccc(-c2ccc3c(c2)nc(-c2cncn2C)n3-c2ccc3c(c2)n(C)c(=O)n3C)c1	< 0.5	> 5
CNC(=O)c1ccc(-c2ccc3c(c2)nc(-c2cccc(C4CC4)c2C)n3-c2ccc3c(c2)n(C)c(=O)n3C)cc1F	< 0.5	> 5
Cn1cncc1-c1nc2cc(-c3ccc(NC(=O)c4ccccc4)cc3)ccc2n1-c1ccc2c(c1)n(C)c(=O)n2C	< 0.5	0.5 to 5
Cc1csc(-c2ccc3c(c2)nc(-c2cncn2C)n3-c2ccc3c(c2)n(C)c(=O)n3C)c1	0.5 to 5	> 5
Cn1cncc1-c1nc2cc(-c3cccnc3)ccc2n1-c1ccc2c(c1)n(C)c(=O)n2C	0.5 to 5	> 5
Cn1cncc1-c1nc2cc(-c3ccoc3)ccc2n1-c1ccc2c(c1)n(C)c(=O)n2C	0.5 to 5	> 5
CNC(=O)c1ccc(-c2ccc3c(c2)nc(-c2cccc(Cl)c2)n3-c2ccc3c(c2)n(C)c(=O)n3C)cc1F	0.5 to 5	> 5
Cc1ccc(-c2ccc3c(c2)nc(-c2cncn2C)n3-c2ccc3c(c2)n(C)c(=O)n3C)o1	0.5 to 5	> 5
CNC(=O)c1ccc(-c2ccc3c(c2)nc(-c2ccno2)n3-c2ccc3c(c2)n(C)c(=O)n3C)cc1F	> 5	> 5
Cc1ccc2c(-c3nc4cc(-c5cnn(C)c5)ccc4n3-c3ccc4c(c3)n(C)c(=O)n4C)c[nH]c2c1	0.5 to 5	> 5
Cn1cncc1-c1nc2cc(-c3cc[nH]c(=O)c3)ccc2n1-c1ccc2c(c1)n(C)c(=O)n2C	< 0.5	> 5
CNC(=O)c1ccc(-c2ccc3c(c2)nc(-c2cccc(C(F)(F)F)c2C)n3-c2ccc3c(c2)n(C)c(=O)n3C)cc1F	0.5 to 5	> 5
COc1cc(-c2ccc3c(c2)nc(-c2cncn2C)n3-c2ccc3c(c2)n(C)c(=O)n3C)ccn1	< 0.5	0.5 to 5
CNC(=O)c1ccc(-c2ccc3c(c2)nc(-c2cncs2)n3-c2ccc3c(c2)n(C)c(=O)n3C)cc1F	0.5 to 5	> 5
CNC(=O)c1ccc(-c2ccc3c(c2)nc(-c2ccsc2)n3-c2ccc3c(c2)n(C)c(=O)n3C)cc1F	0.5 to 5	> 5

SMILES	IC50 (CBP BRD protein) [µM]	IC50 (BRD4 (BD1) protein) [µM]
CNC(=O)c1ccc(-c2ccc3c(c2)nc(-c2cccnc2N)n3-c2ccc3c(c2)n(C)c(=O)n3C)cc1F	0.5 to 5	> 5
CNC(=O)c1ccc(-c2ccc3c(c2)nc(-c2c(C)ncn2C)n3-c2ccc3c(c2)n(C)c(=O)n3C)cc1F	0.5 to 5	> 5
CNC(=O)c1ccc(-c2ccc3c(c2)nc(-c2cccc(OC)c2)n3-c2ccc3c(c2)n(C)c(=O)n3C)cc1F	0.5 to 5	> 5
Cn1cncc1-c1nc2cc(-c3cn(CCO)nn3)ccc2n1-c1ccc2c(c1)n(C)c(=O)n2C	0.5 to 5	> 5
Cn1cncc1-c1nc2cc(-c3cnn(C)c3C#N)ccc2n1-c1ccc2c(c1)n(C)c(=O)n2C	> 5	> 5
CNC(=O)Cn1cc(-c2ccc3c(c2)nc(-c2cncn2C)n3-c2ccc3c(c2)n(C)c(=O)n3C)nn1	0.5 to 5	> 5
CC(=O)Nc1ccc(-c2ccc3c(c2)nc(-c2cncn2C)n3-c2ccc3c(c2)n(C)c(=O)n3C)cc1F	< 0.5	0.5 to 5
CNC(=O)c1ccc(-c2ccc3c(c2)nc(-c2cnccc2C)n3-c2ccc3c(c2)n(C)c(=O)n3C)cc1F	0.5 to 5	> 5
COc1ccccc1-c1ccc2c(c1)nc(-c1cncn1C)n2-c1ccc2c(c1)n(C)c(=O)n2C	0.5 to 5	> 5
Cn1cncc1-c1nc2cc(-c3cnc(N)nc3)ccc2n1-c1ccc2c(c1)n(C)c(=O)n2C	< 0.5	> 5
CNC(=O)c1ccc(-c2ccc3c(c2)nc(-c2cncn2C)n3-c2ccc3c(c2)n(C)c(=O)n3C)cn1	0.5 to 5	> 5
CNC(=O)c1ccc(-c2ccc3c(c2)nc(-c2cncn2C)n3-c2ccc3c(c2)n(C)c(=O)n3C)cc1F	< 0.5	0.5 to 5
CNC(=O)c1ccc(-c2ccc3c(c2)nc(-c2ccccc2)n3-c2ccc3c(c2)n(C)c(=O)n3C)cc1F	0.5 to 5	> 5
Cn1cncc1-c1nc2cc(-c3ccc4c(c3)OCO4)ccc2n1-c1ccc2c(c1)n(C)c(=O)n2C	< 0.5	> 5
Cn1cncc1-c1nc2cc(Oc3ccccc3)ccc2n1-c1ccc2c(c1)n(C)c(=O)n2C	0.5 to 5	> 5
Cc1ncc(-c2ccc3c(c2)nc(-c2cncn2C)n3-c2ccc3c(c2)n(C)c(=O)n3C)s1	< 0.5	> 5
CNC(=O)c1ccc(-c2ccc3c(c2)nc(-c2cnccc2N)n3-c2ccc3c(c2)n(C)c(=O)n3C)cc1F	0.5 to 5	> 5
CNS(=O)(=O)c1ccc2c(c1)nc(-c1c[nH]c3cc(C)ccc13)n2-c1ccc2c(c1)n(C)c(=O)n2C	> 5	> 5
CC(=O)Nc1ccc(-c2ccc3c(c2)nc(-c2cncn2C)n3-c2ccc3c(c2)n(C)c(=O)n3C)cc1	< 0.5	> 5
Cn1cncc1-c1nc2cc(-c3ccc(NS(C)(=O)=O)cc3)ccc2n1-c1ccc2c(c1)n(C)c(=O)n2C	< 0.5	0.5 to 5
CNC(=O)c1ccc(-c2ccc3c(c2)nc(-c2ccncc2)n3-c2ccc3c(c2)n(C)c(=O)n3C)cc1F	> 5	> 5
